Experimental data as given in ChEMBL document CHEMBL1140401, “Synthesis and pharmacological evaluation of Tic-hydantoin derivatives as selective sigma1 ligands. Part 2” (Bioorg Med Chem Lett, 2005).

Tested on: Sigma 2 receptor
Experiment: Inhibitory activity against opioid sigma 2 receptor in rat cerebral cortex using [3H]DTG (+300 nM (+)pentazocine) as radio ligand at pH 7.5 for 120 min at 22 degree C

**Q.** With `O=C1[C@@H]2Cc3ccccc3CN2C(=O)N1C1CCN(Cc2ccccc2)CC1` as the compound, how does the IC50 read?
**A.** 24 nM
